Consider one substance from patent publication US12128086B2, “Formulations and methods of use for alpha connexin c-terminal (ACT) peptides” (XEQUEL BIO, INC., priority 2012, dated 2024).

Data set [1] in a line: Stability testing of wound healing gel prototype formulations per Study #1062. Format: physicochemical. To be noted: HEC versus Pluronic gelling agent; six prototypes of Study #1062. As for the experimental part:
As used herein, “analytical methods” includes the following techniques that are useful for determining the identity and quantity of the ACT peptide in a particular formulation: NMR, HPLC, Amino Acid Composition and Molecular Weight Determinations, and Specific Optical Rotation.
The first study was conducted per protocol #1062. During this study, 6 prototype formulations were evaluated as outlined in Table 4. The purposes of the study were to select a proper pH range for the product and also to select a proper gelling agent. The API concentration used for this study was 0.072% which was the initial targeted product concentration. Phosphate buffers at pH 5, 6, and 7 and two gelling agents, Pluronic and Hydroxyethylcellulose (HEC) were evaluated. The quantity of API required for the formulations was calculated as follows: Batch size for each formulation=12×5 g=60 g or 70 g API quantity for 6 formulations=6×70×0.072%/82.4%=0.37 g API purity value=82.4%
Five formulations, formulae 2414-10 to -14, were gelled with Pluronic 127, which was assumed to be the preferred gelling agent. Only one formulation, 2414-15, was gelled with HEC as a back-up. The available stability data indicated the following conclusions.

For data set [2] the following is noted: water, room temperature.

Consider “Biotin-Ahx-Arg-Gln-Pro-Lys-lle-Trp-Phe-Pro-Asn-Arg-Arg-Lys-Pro-Trp-Lys-Lys-Arg-Pro-Arg-Pro-Asp-Asp-Leu-Glu-lle-OH [Peptide 328967]”, for which, in data set [1], the “Comparative stability of API / formulations (in words)” value is reported as “more stable in HEC gel than Pluronic gels”. In addition, in data set [2], the Solubility entry is reported as “Soluble in water at room temperature”.
